AlphaSeq binding of Ab-14 heavy chain variants to a spike HR2 peptide

All variants were tested on one target, the spike HR2 peptide PDVDLGDISGINAS (SARS-CoV-2).

Parent scFv Ab-14: VH joined to VL by three GGGGS repeats. Changes lie in the heavy chain CDRs alone.
VH: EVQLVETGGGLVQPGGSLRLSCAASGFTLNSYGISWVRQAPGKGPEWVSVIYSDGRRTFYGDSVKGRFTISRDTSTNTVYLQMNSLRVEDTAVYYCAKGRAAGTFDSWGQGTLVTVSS
VL: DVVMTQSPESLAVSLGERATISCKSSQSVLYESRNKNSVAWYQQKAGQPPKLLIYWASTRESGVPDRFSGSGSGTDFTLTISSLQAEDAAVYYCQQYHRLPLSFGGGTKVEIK

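Phage display of a naive human antibody library on the peptide gave the parent. AAYL49 was designed without a model: most single CDR substitutions and a random sample of double and triple ones. In AlphaSeq, yeast of one mating type display the scFv and yeast of the other type display the target. Pairs that bind mate more often; barcode pairs of the diploids are counted by sequencing. Read counts were normalised to the haploid input and turned into Kd by a linear fit to BCL2-family pairs of known affinity, for each replicate. Mating was done three times.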

Changes read parent residue, position, new residue, counted from the first residue of the VH shown.
Scale: log10 of Kd in nM, estimated from mating counts; low values are strong binders.
The mean shown is taken over the replicates in which the pair was detected.
Where no diploid with the target was found in that replicate, the entry reads "n.d.": below detection, most likely a poor binder, though not proof of it.
For reference, the parent read 0.65 as the reference entry and 4.11 (one replicate of three) as a member of this library.

| changes | log10 Kd (nM) by replicate | mean, log10 nM | signal with controls |
|---|---|---|---|
| Y32S/Y52H/S63H | 3.84 / n.d. / n.d. | 3.84 | 1 of 9 (3.78) |
| Y52H/G55P/A101N | n.d. / n.d. / n.d. | n.d. | 1 of 9 (3.54) |
| Y32A/S35V/R56L | n.d. / n.d. / n.d. | n.d. | 1 of 9 (3.34) |
| D54I/V64H/T104D | n.d. / n.d. / n.d. | n.d. | 0 of 9 |
| R57F/G103T | n.d. / n.d. / n.d. | n.d. | 1 of 9 (3.95) |
| D54P/Y60K/A101E | 4.91 / n.d. / n.d. | 4.91 | 3 of 9 (3.94) |
| R57M/D62V/T104S | n.d. / n.d. / n.d. | n.d. | 1 of 9 (3.51) |
| Y32R/I51E/F105V | n.d. / n.d. / 4.27 | 4.27 | 1 of 9 (4.14) |
| G26C/D62R/V64A | 5.62 / 3.68 / n.d. | 4.65 | 3 of 9 (4.42) |
| L29A/S35C/S53V | n.d. / n.d. / n.d. | n.d. | 1 of 9 (3.56) |
| T28N/S35T/K65C | n.d. / n.d. / n.d. | n.d. | 0 of 9 |
| T58Q/K65S/R100E | 1.18 / 1.24 / 1.12 | 1.18 | 2 of 9 (3.05) |
| F27A/I51G/G99P | n.d. / 3.95 / n.d. | 3.95 | 1 of 9 (3.95) |
| G33F/V50K/R100W | n.d. / n.d. / n.d. | n.d. | 1 of 9 (4.40) |
| G26D/I34L/T58Y | n.d. / n.d. / 4.53 | 4.53 | 3 of 9 (4.45) |
| T58H/S107Q | 2.43 / 2.31 / 2.44 | 2.40 | 2 of 9 (4.34) |
| D54A/F59A/T104G | n.d. / n.d. / n.d. | n.d. | 2 of 9 (3.14) |
| T28A/S35L/T58G | 3.86 / 5.01 / n.d. | 4.43 | 2 of 9 (3.16) |
| G55W/G61L | n.d. / n.d. / n.d. | n.d. | 2 of 9 (4.45) |
| G99R/S107E | 1.50 / 1.78 / 1.38 | 1.55 | 3 of 9 (4.22) |
| L29A/G103K/D106N | n.d. / n.d. / n.d. | n.d. | 1 of 9 (1.92) |
| V50H/G55D/V64P | n.d. / n.d. / n.d. | n.d. | 0 of 9 |
| G103P/T104K/D106R | 4.75 / 5.22 / 4.69 | 4.89 | 5 of 9 (4.59) |
| L29N/R100E | 4.15 / 5.60 / 4.27 | 4.67 | 6 of 9 (3.80) |
| G61P/V64R/G99T | n.d. / 3.44 / 3.84 | 3.64 | 5 of 9 (3.77) |
| I34Q/S35W/V50I | 6.25 / 5.41 / n.d. | 5.83 | 4 of 9 (4.51) |
| D54L/T58D/D106K | n.d. / 2.99 / n.d. | 2.99 | 0 of 9 |
| Y32E/T104C/D106W | 1.33 / 1.44 / 1.30 | 1.36 | 4 of 9 (4.54) |
| Y60N/G61L/D62C | n.d. / n.d. / n.d. | n.d. | 0 of 9 |
| N30I/R56I/R57K | n.d. / n.d. / n.d. | n.d. | 0 of 9 |
| R56Q/R57G/K65Y | n.d. / n.d. / n.d. | n.d. | 0 of 9 |
| G61Q/T104S | 2.10 / 2.36 / 1.97 | 2.14 | 2 of 9 (3.87) |
| T28D/Y60I | 1.09 / 2.40 / 1.03 | 1.51 | 0 of 9 |
| L29F/Y32V/F59D | n.d. / 5.03 / 5.35 | 5.19 | 3 of 9 (4.14) |

2 of these entries, quoted again:

changes,log10 Kd (nM) by replicate,"mean, log10 nM",signal with controls
L29N/R100E,4.15 / 5.60 / 4.27,4.67,6 of 9 (3.80)
R57F/G103T,n.d. / n.d. / n.d.,n.d.,1 of 9 (3.95)

As a blank, each scFv also met three strains without target: over library AAYL49, 15% of these pairings were detected, typically at 4.06 and seldom below 2.83. Also given: how often the same scFv was detected with the empty control strains, with their mean in brackets.

Values reported by Engelhart et al. 2022, doi:10.1038/s41597-022-01779-4 (FLAb copy).